The test has as its target human κ opioid receptor (Homo sapiens, UniProt P41145). In words: [35S]GTPγS binding, stimulation and inhibition of agonist-stimulated binding. Type of test: biochemical. Background: GTPγS resists hydrolysis and so accumulates on activated G proteins.

Protein sequences, listed by entry. Tags and fused reporters are not part of them. Lines headed by an entry give the natural chain unless they say otherwise; changes in a name come on top.
UniProt P41145: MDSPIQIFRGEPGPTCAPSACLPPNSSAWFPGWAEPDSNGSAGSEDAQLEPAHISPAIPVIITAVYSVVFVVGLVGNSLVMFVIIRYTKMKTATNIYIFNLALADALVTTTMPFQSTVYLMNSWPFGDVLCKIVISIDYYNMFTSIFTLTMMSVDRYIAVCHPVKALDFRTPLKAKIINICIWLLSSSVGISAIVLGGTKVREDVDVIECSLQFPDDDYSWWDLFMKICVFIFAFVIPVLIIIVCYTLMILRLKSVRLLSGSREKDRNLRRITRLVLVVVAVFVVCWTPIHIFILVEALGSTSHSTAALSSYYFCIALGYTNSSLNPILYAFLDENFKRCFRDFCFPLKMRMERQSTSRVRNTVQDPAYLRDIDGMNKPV

Where two headings read alike, the source gives them in different places.

The EC50 is the concentration giving half of the maximal effect. Molecule `CC1C2Cc3ccc(C(=O)NCCc4ccc(-c5ccccc5)cc4)cc3C1(C)CCN2CC1CC1` (racemic) [Compound 1, N-(2-[1,1′-biphenyl]-4-ylethyl)-3-(cyclopropylmethyl)-1,2,3,4,5,6-hexahydro-6,11-dimethyl-2,6-methano-3-benzazocine-8-carboxamide, reference compound] had an EC50 of 3 ± 0.5 nM. `C[C@H]1C2Cc3ccc(C(N)=O)cc3[C@@]1(C)CCN2CC1CC1` [Compound 2, 8-carboxamidocyclazocine, reference compound]: the EC50 (Kappa Opioid Receptor, stimulation of [35S]GTPγS binding) was found to be 4.4 ± 0.73 nM.

The record behind these values is PMC3602279 (Bioorganic & medicinal chemistry letters, 2013).
